Chains of the proteins cited; added tags and fusions are not shown. Residues count along the entry.
UniProt P13726, 33-251: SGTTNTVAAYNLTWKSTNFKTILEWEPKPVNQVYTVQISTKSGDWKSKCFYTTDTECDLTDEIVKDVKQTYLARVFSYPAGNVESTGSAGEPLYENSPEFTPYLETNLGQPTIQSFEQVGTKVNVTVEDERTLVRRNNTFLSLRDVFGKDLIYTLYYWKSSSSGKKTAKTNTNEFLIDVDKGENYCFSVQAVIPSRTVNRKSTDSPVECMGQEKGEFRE

According to US20190085055A1 (Zymeworks, published 2019):

Target: T1, tissue factor extracellular domains (human, UniProt P13726 33-251)
T1 construct: extracellular domain; also called TF; purified tissue factor
Test: SPR, antibody captured by anti-human Fc, antigen as analyte; lower end of the observed KD range of the WT control

B1: D3H44 homodimeric Mab control (WT) (antibody, V domains shown)
VH: EVQLVESGGGLVQPGGSLRLSCAASGFNIKEYYMHWVRQAPGKGLEWVGLIDPEQGNTIYDPKFQDRATISADNSKNTAYLQMNSLRAEDTAVYYCARDTAAYFDYWGQGTLVTVSS
VL: DIQMTQSPSSLSASVGDRVTITCRASRDIKSYLNWYQQKPGKAPKVLIYYATSLAEGVPSRFSGSGSGTDYTLTISSLQPEDFATYYCLQHGESPWTFGQGTKVEIKR
notes: also called Homodimeric Mab (WT) D3H44
  Kd: 0.04 to 0.076 nM
